Reference: ChEMBL document CHEMBL1806384, “Identification of benzofuran-4,5-diones as novel and selective non-hydroxamic acid, non-peptidomimetic based inhibitors of human peptide deformylase” (Bioorg Med Chem Lett, 2011)

How the values were obtained:
Format in all cases: functional, cell-based
[1] = Cytotoxicity against human CWR22 cells
HL-60 = experiment: Cytotoxicity against human vincristine-resistant HL60 cells
[2] = Cytotoxicity against human Meso47 cells

Row | Structure (SMILES) | IC50 [1] | IC50 (HL-60) | IC50 [2]
1 | COc1ccc(C(=O)c2coc3c2C(=O)C(=O)C(Cl)=C3)cc1 | 69 µM | – | –
2 | COc1ccc(C(=O)c2coc3c2C(=O)C(=O)C(Br)=C3)cc1 | 71 µM | 67 µM | 71 µM
3 | COc1cc(C(=O)c2coc3c2C(=O)C(=O)C(Cl)=C3Cl)cc(OC)c1OC | 67 µM | – | –
